# Reference: ChEMBL document CHEMBL1154758, “The coumarin-binding site in carbonic anhydrase accommodates structurally diverse inhibitors: the antiepileptic lacosamide as an example and lead molecule for novel classes of carbonic anhydrase inhibitors” (J Med Chem, 2010)
# Molecular target: Carbonic anhydrase 2 (Homo sapiens, UniProt P00918)
# Experiment: Inhibition of human recombinant CA2 by stopped flow CO2 hydrase assay
structure (smiles),measurement,value
COC[C@@H](NC(C)=O)C(=O)NCc1ccccc1 [LACOSAMIDE],Ki,331 nM
